Measured values as given in the NIST ThermoML archive (doi:10.1021/je900496t).

Key:
[1] = refractive index (Na D-line) (dimensionless); xn = mol fraction of the nth substance listed; settings: 298.15 K, 101 kPa, Liquid, Standard Abbe refractometry
[2] = xn = mol fraction of the nth substance listed; settings: 298.15 K, 101 kPa, Liquid

CCCCOCCCC [dibutyl ether] + CC(C)CC(C)(C)C
Settings	mass density, [2] [kg/m3]	refractive index, [1]
x1 = 0.0497	692.1	1.38937
x1 = 0.1	696.09	1.38978
x1 = 0.1996	703.9	1.39059
x1 = 0.3	711.73	1.39139
x1 = 0.4001	719.45	1.39217
x1 = 0.5005	727.17	1.39296
x1 = 0.6003	734.81	1.39376
x1 = 0.7	742.31	1.39449
x1 = 0.8	749.75	1.39521
x1 = 0.9	757.11	1.39589
x1 = 0.95	760.7	1.39621
